Earlier results on one substance are cited in publication PMC11083565, “Computational Design of Novel Cyclic Peptides Endowed with Autophagy-Inhibiting Activity on Cancer Cell Lines” (International Journal of Molecular Sciences, 2024).

The Kd is the constant that tells how readily two partners part at equilibrium.

The target of the data set is LC3B (Homo sapiens) (UniProt Q9GZQ8). The following applies: cited from earlier work.

As to RavZ (from UniProt Q5ZUV9), the Kd was 260 nM.
